Usually MIC stands for the lowest concentration that inhibits growth of the organism.

Type in all cases: functional
Settings in all cases: ATCC 25922, 18 h

Assay [1] deals with Escherichia coli. Briefly: Antibacterial activity against Escherichia coli ATCC 25922 after 18 hrs in presence of 50% human heat-inactivated serum by broth dilution method.
Assay [2] deals with Escherichia coli. Briefly: Antibacterial activity against Escherichia coli ATCC 25922 after 18 hrs in presence of NaCl by broth dilution method.
Assay [3] concerns Escherichia coli. Nature of the assay: Antibacterial activity against Escherichia coli ATCC 25922 after 18 hrs in presence of KCl by broth dilution method. In general terms: In broth dilution the organism is exposed to a series of concentrations in liquid medium.
Assay [4] relates to Escherichia coli. Nature of the assay: Antibacterial activity against Escherichia coli ATCC 25922 after 18 hrs in presence of FeCl3 by broth dilution method.
Assay [5] deals with Escherichia coli. Nature of the assay: Antibacterial activity against Escherichia coli ATCC 25922 after 18 hrs in presence of 12.5% human heat-inactivated serum by broth dilution method.
The test system of assay [6] is Escherichia coli. Briefly: Antibacterial activity against Escherichia coli ATCC 25922 after 18 hrs in presence of 25% human heat-inactivated serum by broth dilution method.
The subject of assay [7] is Escherichia coli. Nature of the assay: Antibacterial activity against Escherichia coli ATCC 25922 after 18 hrs in presence of ZnCl2 by broth dilution method.
The test system of assay [8] is Escherichia coli. Nature of the assay: Antibacterial activity against Escherichia coli ATCC 25922 after 18 hrs in presence of MgCl2 by broth dilution method.
Assay [9] relates to Escherichia coli. Nature of the assay: Antibacterial activity against Escherichia coli ATCC 25922 after 18 hrs in presence of NH4Cl by broth dilution method.
Assay [10] has as its system Escherichia coli. Briefly: Antibacterial activity against Escherichia coli ATCC 25922 after 18 hrs in presence of CaCl2 by broth dilution method.

As for `CC[C@H](C)[C@H](NC(=O)CN)C(=O)NCC(=O)N[C@@H](C)C(=O)N[C@H](C(=O)N[C@@H](CC(C)C)C(=O)N[C@@H](CCCCN)C(=O)N[C@H](C(=O)N[C@@H](CC(C)C)C(=O)N[C@H](C(=O)N[C@H](C(=O)NCC(=O)N[C@@H](CC(C)C)C(=O)N1CCC[C@H]1C(=O)N[C@@H](C)C(=O)N[C@@H](CC(C)C)C(=O)N[C@H](C(=O)N[C@@H](CO)C(=O)N[C@@H](Cc1c[nH]c2ccccc12)C(=O)N[C@H](C(=O)N[C@@H](CCCCN)C(=O)N[C@@H](CCCNC(=N)N)C(=O)N[C@@H](CCCCN)C(=O)N[C@@H](CCCNC(=N)N)C(=O)N[C@@H](CCC(N)=O)C(=O)N[C@@H](CCC(N)=O)C(N)=O)[C@@H](C)CC)[C@@H](C)CC)[C@@H](C)O)[C@@H](C)O)C(C)C)C(C)C` [MELITTIN], the MIC was found to be 64 µM in the assay on Escherichia coli [1]; 4 µM with Escherichia coli [2]; 2 µM with Escherichia coli [3]; 2 µM in the assay on Escherichia coli [4]; 32 µM in the assay with Escherichia coli [5]; 64 µM in the assay with Escherichia coli [6]. Also, the minimum inhibitory concentration (MIC) in the assay with Escherichia coli [7] is 2 µM; in the assay with Escherichia coli [8], 4 µM; in the assay on Escherichia coli [9] it was 2 µM; in the assay on Escherichia coli [10] it was 8 µM.

(Values after ChEMBL document CHEMBL4177755, “Combating Drug-Resistant Fungi with Novel Imperfectly Amphipathic Palindromic Peptides” (J Med Chem, 2018).)
